## Apparent affinities of Ab-14 variants for a coronavirus HR2 peptide

The target is the same throughout: PDVDLGDISGINAS, from the HR2 region of SARS-CoV-2 spike.

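Phage display of a naive human antibody library on the peptide gave the parent. AAYL50 was designed without a model: most single CDR substitutions and a random sample of double and triple ones. The assay is AlphaSeq: two haploid yeast populations carry antibody and antigen on their surface. The frequency of each diploid, read from paired DNA barcodes, reflects how well the two displayed proteins bind. Each replicate has its own calibration line, from reference interactions of the BCL2 family. The assay was run in three technical replicates.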

Ab-14 is the parent antibody, in scFv form: VH, then a (GGGGS)3 linker, then VL. The heavy chain is unchanged in all variants.
VH: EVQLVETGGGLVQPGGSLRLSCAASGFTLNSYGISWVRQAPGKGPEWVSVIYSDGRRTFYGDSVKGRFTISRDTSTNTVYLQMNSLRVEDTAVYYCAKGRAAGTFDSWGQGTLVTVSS
VL: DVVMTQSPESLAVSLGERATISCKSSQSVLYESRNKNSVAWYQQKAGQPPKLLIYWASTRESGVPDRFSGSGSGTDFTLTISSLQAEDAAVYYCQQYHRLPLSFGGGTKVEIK

The parent's light chain CDRs are KSSQSVLYESRNKNSVA, WASTRES, QQYHRLPLS; each variant's own CDRs replace them letter for letter. This list gathers variants with a substitution at S25 (VL, numbered from residue 1). The Kd shown is the geometric mean over detected replicates; a lower Kd is a better binder. Where no diploid with the target was found in any replicate, the entry reads "no signal": below detection, most likely a poor binder, though not proof of it. Entries are sorted by rising average, undetected variants last. Background: pairings of library AAYL50 with three empty control strains gave a value in 18% of cases (median 15 µM, 5th percentile 970 nM). Values in that range, when seen in few replicates, are hard to tell from nonspecific mating.

For KISQSVLYESRNKNSVA | WASTRNS | QQYHRLPLS, the assay gave 460 pM (3 of 3 replicates).
For KYSQSVLSESRNKNSVA | WASTRES | QQYHRLPLS, the assay gave 1.4 nM (3 of 3 replicates).
For KNSQSVLYESRNKNAVA | WASTRED | QQYHRLPLS, the assay gave 3.3 nM (3 of 3 replicates).
For KVSQSVLYESRNKQSVA | WASTRES | QTYHRLPLS, the assay gave 5.1 nM (3 of 3 replicates).
For KGQQSVLYESRNKNSVA | WASTRES | QQYHRLPCS, the assay gave 6.4 nM (3 of 3 replicates).
For KASQSVLAESRNKLSVA | WASTRES | QQYHRLPLS, the assay gave 10 nM (3 of 3 replicates).
For KVSQSVLYESRNKDSVA | WASTRES | QQYHRLPFS, the assay gave 12 nM (3 of 3 replicates).
For KKSQSVLYESRNKNAVA | MASTRES | QQYHRLPLS, the assay gave 12 nM (3 of 3 replicates).
For KEVESVLYESRNKNSVA | WASTRES | QQYHRLPLS, the assay gave 13 nM (3 of 3 replicates).
For KWSQSVLYESRNKNSVA | KASTRES | VQYHRLPLS, the assay gave 13 nM (3 of 3 replicates).
For KFSPSVLYESRNKNSVA | WASTQES | QQYHRLPLS, the assay gave 14 nM (3 of 3 replicates).
For KLQQSVLYESRNKNSVA | WASTRES | QQPHRLPLS, the assay gave 16 nM (3 of 3 replicates).
For KHSQSVLYFSRNKNSVA | WASTRES | QQYHRLPLS, the assay gave 48 nM (3 of 3 replicates).
For NTSQSVLYESRNKNSVA | WASTRES | QQFHRLPLS, the assay gave 76 nM (3 of 3 replicates).
For KASQSVLYESRNKNSVA | WASTRES | SQYHRLPLS, the assay gave 98 nM (3 of 3 replicates).
For KRSQSVLYESRNKNSVA | WASTRES | QQYHRLPLS, the assay gave 100 nM (3 of 3 replicates).
For KHSQSVLYESRNKNSVA | WCSTRES | QQYGRLPLS, the assay gave 200 nM (3 of 3 replicates).
For KISQSVTYESRNKNSVA | WASTRES | RQYHRLPLS, the assay gave 480 nM (3 of 3 replicates).
For KRSQSVSYESRNKNSVA | WASTRES | QQYHRLGLS, the assay gave 630 nM (2 of 3 replicates).
For KWSQSVLYESGNKNSVA | VASTRES | QQYHRLPLS, the assay gave 710 nM (3 of 3 replicates).
For KMSQSVLYESRNKNSVA | WASTRES | QQYDRLWLS, the assay gave 1.6 µM (1 of 3 replicates).
For KYSQSVLYASRNKNSVA | WASTRES | QQYHRLPGS, the assay gave 1.9 µM (3 of 3 replicates).
For KNSQSVLYESRNKNVVA | WASTRLS | QQYHRLPLS, the assay gave 3.2 µM (1 of 3 replicates).
For KNSQSVLYESRNKNSVA | WASTRES | YQYHRLNLS, the assay gave 4.5 µM (1 of 3 replicates).
For KKSQSVLYESRNKNSVA | WASSRES | QQDHRLPLS, the assay gave 200 µM (1 of 3 replicates).
For KGSSSVLYESRNKNSVL | WASTRES | QQYHRLPLS, the assay gave no signal (0 of 3 replicates).
For KVSQSVLYESRNKNHVA | WACTRES | QQYHRLPLS, the assay gave no signal (0 of 3 replicates).
For KNSQSVLYESRNKNSVW | WASTREV | QQYHRLPLS, the assay gave no signal (0 of 3 replicates).
For KDSQSVLYESRNKNSVA | WASTDES | QQYHRLWLS, the assay gave no signal (0 of 3 replicates).
For KVSQSVLYESRNKNSDA | WASVRES | QQYHRLPLS, the assay gave no signal (0 of 3 replicates).
For YTSQSVLYESRNANSVA | WASTRES | QQYHRLPLS, the assay gave no signal (0 of 3 replicates).

A selection of 3 entries from above:

With KVSQSVLYESRNKQSVA | WASTRES | QTYHRLPLS the result was 5.1 nM (3 of 3 replicates).
With KWSQSVLYESRNKNSVA | KASTRES | VQYHRLPLS the result was 13 nM (3 of 3 replicates).
With KASQSVLYESRNKNSVA | WASTRES | SQYHRLPLS the result was 98 nM (3 of 3 replicates).

The measurements come from Engelhart et al. 2022 (doi:10.1038/s41597-022-01779-4) through the FLAb antibody collection.